# This is a selection; strong and weak results do not stand in their true shares. Activity calls are given as the source filed them.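 The calls were made as follows: active = primary screen active, with duplicate mean exceeding buffer control mean plus 3 SD of buffer wells (cut at about 28% in these data); inactive = the rest.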
# Target: Potassium voltage-gated channel subfamily KQT member 1 (Homo sapiens) (UniProt P51787)
# Test: blockers of human KCNQ1 channel – cell-based, Tl flux, duplicate, confirmation (AID 588353);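 also: 0% = buffer control ratio and 100% = XE991 inhibitor control ratio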
# Details: KCNQ1 cell line, FluxOR thallium flux fluorescence; at 10 µM; stronger effect = higher value
# In short: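 System: stable KCNQ1-expressing CHO cell line; Reagent: Tl2SO4 plus K2SO4 stimulus, each 12.5 mM in 5x stock; Schedule: dye loading 90 min, compound 20 min, both room temperature; Measured by: thallium-sensitive FluxOR dye fluorescence; Read-out basis: percent inhibition of fluorescence change ratio, scaled buffer to XE991; Control set: buffer and XE991; Replication: duplicate.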
row,Structure (SMILES),inhibition
1,COc1cc(C(=O)NCC2(N3CCOCC3)CCCCC2)cc(Cl)c1OC(C)C,active: 78%
2,CCC1=CC2Cc3nc4ccc(Cl)cc4c(N)c3C(C1)C2 (configuration not stated),active: 68%

# Source: PubChem BioAssay AID588353 (Johns Hopkins Ion Channel Center, 2011)
